Drawing on PubChem BioAssay AID1910 (Broad Institute, 2009), this text covers activation for 24 molecules.

Only a part is listed here, and it is no random draw. Some of these compounds have results that are not shown, active ones among them. Active and inactive are the calls of the source.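 The calls were made as follows: active = mean activation of at least 10% of the iron chelator positive control signal, with at least half of replicates also reaching 10%; inconclusive = mean and replicate majority disagree about reaching 10%; inactive = mean and most replicates under 10%.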

A short description of the assay: hypoxia response element reporter activation – cell-based, U2OS HRE-luciferase, luminescence, primary screen (AID 1910). The settings on record: active compounds read high, screened at 7.5 µM (by protocol), normalized: DMSO 0%, desferrioxamine 100%.
For `COc1ccc(Br)c(C(=O)NCC2(N3CCCCC3)CCCCC2)c1`, the activation is inactive: -2.5%.

For the molecule `CC(C)Oc1ccc(C(=O)NCC2(N(C)C)CCCCC2)cc1`, the activation is inactive: -3.45%.

For `CN(C)c1cccc(C(=O)NCC2(N(C)C)CCCCC2)c1`, the activation is inactive: 0.0288%.

With `O=C(OC1CN2CCC1CC2)C(CO)(c1ccccc1)c1ccccc1` (centres undefined), the activation was inactive: 0.885%.

As to `COc1cccc(C(=O)NCC2(N3CCCCC3)CCCCC2)c1`, the activation is inactive: -0.545%.

With `COc1ccc(Cl)cc1C(=O)NCC1(N(C)C)CCCCC1`, the activation is inactive: 0.287%.

As to `O=C(NCC1(N2CCCCC2)CCCCC1)c1cccc(Cl)c1`, the activation is inactive: 1.17%.

Regarding `CN(C)C1(CNC(=O)c2ccc(Br)cc2)CCCCC1`, the activation was inactive: 1.68%.

As to `COc1cc(C(=O)NCC2(N(C)C)CCCCC2)c([N+](=O)[O-])cc1OC`, the activation was inactive: -13.3%.

Turning to `C=CCN1CCN(CCOC(=O)C(O)(c2ccccc2)c2ccccc2)CC1`, the activation is inactive: -0.634%.

As for `O=C(NCC1(N2CCCCC2)CCCCC1)c1cc(F)c(F)cc1Cl`, the activation is inactive: -0.55%.

With `COc1ccc(C(=O)NCC2(N(C)C)CCCCC2)cc1`, the activation was inactive: -4.88%.

With `Cc1cc(C(=O)NCC2(N3CCCCC3)CCCCC2)ccc1[N+](=O)[O-]`, the activation is inactive: 0.772%.

Turning to `CCN1CCCC(OC(=O)C2(O)c3ccccc3C=Cc3ccccc32)C1` (centres undefined), the activation is inactive: -0.431%.

With `O=C(NCC1(N2CCCCC2)CCCCC1)c1cccc(Br)c1`, the activation is inactive: -0.167%.

With `Cc1ccccc1C(=O)NCC1(N2CCCCC2)CCCCC1`, the activation is inactive: 0.433%.

Consider `CN(C)C1CCCC1OC(=O)C(O)(c1ccccc1)c1ccccc1` (centres undefined), for which the activation was inactive: 1.19%.

Turning to `CN(C)c1ccc(C(=O)NCC2(N(C)C)CCCCC2)cc1`, the activation is inactive: 0.518%.

Consider `CCN(CC)CC(C)C(C)OC(=O)C(O)(c1ccccc1)c1ccccc1` (centres undefined), for which the activation was inactive: -0.0639%.

In the case of `COc1cc(SC)ccc1C(=O)NCC1(N(C)C)CCCCC1`, the activation is inactive: 0.0349%.

For `CC(C)N1C(=O)CC2(CCN(CCOC(=O)C(O)(c3ccccc3)c3ccccc3)CC2)C1=O`, the activation was inactive: -0.102%.

For the molecule `Cc1ccc(C(=O)NCC2(N3CCCCC3)CCCCC2)cc1`, the activation was inactive: 0.421%.

Consider `O=C(NCC1(N2CCCCC2)CCCCC1)c1cc([N+](=O)[O-])ccc1Cl`, for which the activation is inactive: -0.536%.

Regarding `CN1[C@@H]2CC[C@H]1CC(OC(=O)C(O)(c1ccccc1)c1ccccc1)C2` (some centres undefined), the activation was inactive: 0.0763%.
